Consider eleven compounds from ChEMBL document CHEMBL4823278, “Metal binding 6-arylthio-3-hydroxypyrimidine-2,4-diones inhibited human cytomegalovirus by targeting the pUL89 endonuclease of the terminase complex” (Eur J Med Chem, 2021).

SMILES strings stand for the structures.

Test system in the first series: not listed separately
The experiment in a line: Cytotoxicity against human HEL 299 cells assessed as cell viability at 10 uM incubated for 168 hrs by MTS-based tetrazolium reduction assay relative to control. The conditions noted are these: read-out: Activity.
Turning to `Cc1cc(-c2ccc(Sc3cc(=O)n(O)c(=O)[nH]3)cc2)ccc1F`, the viability at 168 h, 10 µM turned out to be 77%.

Another series deals with T1, Tripartite terminase subunit 3 (Human betaherpesvirus 5, UniProt P16732).
T1 sequence (P16732 whole entry): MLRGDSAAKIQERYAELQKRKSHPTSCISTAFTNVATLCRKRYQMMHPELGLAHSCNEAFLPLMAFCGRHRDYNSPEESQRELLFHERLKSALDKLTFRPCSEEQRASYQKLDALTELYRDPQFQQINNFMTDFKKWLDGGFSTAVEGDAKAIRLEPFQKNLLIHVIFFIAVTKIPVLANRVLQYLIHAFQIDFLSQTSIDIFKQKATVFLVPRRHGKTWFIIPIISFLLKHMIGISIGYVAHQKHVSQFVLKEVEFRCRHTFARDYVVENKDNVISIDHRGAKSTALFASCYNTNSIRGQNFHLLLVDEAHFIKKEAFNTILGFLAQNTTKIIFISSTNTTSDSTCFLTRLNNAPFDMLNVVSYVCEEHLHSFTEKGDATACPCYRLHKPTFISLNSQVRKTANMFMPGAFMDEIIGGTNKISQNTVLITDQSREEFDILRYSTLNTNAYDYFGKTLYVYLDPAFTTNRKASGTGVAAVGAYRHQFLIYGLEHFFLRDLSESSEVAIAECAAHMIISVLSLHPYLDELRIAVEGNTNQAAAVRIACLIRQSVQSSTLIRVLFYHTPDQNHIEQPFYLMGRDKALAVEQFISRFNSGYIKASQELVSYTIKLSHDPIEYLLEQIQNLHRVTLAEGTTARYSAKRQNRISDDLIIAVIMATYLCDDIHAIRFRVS
Settings: not given
As a reminder, the IC50 is the concentration that inhibits the measured activity by half. The low end stands for higher potency, the high end for lower potency. `O=C(O)c1cn(Cc2ccc(Cl)c(F)c2)cc(O)c1=O`: the IC50 amounted to 3.5 µM.

Another series has as its system HEL 299. The conditions noted are these: human, hel 299, 168 h.
`Cc1cc(-c2ccc(Sc3cc(=O)n(O)c(=O)[nH]3)cc2)ccc1F` came in with a CC50 of 9.4 µM. The same measure, in the same setting: next, `Cn1c(Sc2cccc3ccccc23)cc(=O)n(O)c1=O`: 9 µM. The compound `O=c1cc(Sc2cccc(-c3ccc(Cl)cc3)c2)[nH]c(=O)n1O` returned a CC50 of 28.8 µM.

`CCn1c(Sc2ccc(F)cc2)cc(=O)n(O)c1=O` returned a CC50 of 13.8 µM. Still for that read-out and setting: next, `Cn1c(Sc2ccccc2Br)cc(=O)n(O)c1=O`: 23.6 µM. Still for that read-out and setting: next, `Cn1c(Sc2ccc(Br)cc2)cc(=O)n(O)c1=O`: 26.6 µM. Still for that read-out and setting: the result for `Cn1c(Sc2ccc(Cl)cc2)cc(=O)n(O)c1=O` reads 19.4 µM; that for `Cn1c(Sc2ccc(C(F)(F)F)cc2)cc(=O)n(O)c1=O`, 26.8 µM; that for `COc1cccc(Sc2cc(=O)n(O)c(=O)n2C)c1`, 15.3 µM. Compound `Cn1c(Sc2cccc(C(F)(F)F)c2)cc(=O)n(O)c1=O` displayed a CC50 of 20.7 µM.
